Protein sequences, listed by entry. Tags and fused reporters are not part of them.
UniProt P41146, whole entry: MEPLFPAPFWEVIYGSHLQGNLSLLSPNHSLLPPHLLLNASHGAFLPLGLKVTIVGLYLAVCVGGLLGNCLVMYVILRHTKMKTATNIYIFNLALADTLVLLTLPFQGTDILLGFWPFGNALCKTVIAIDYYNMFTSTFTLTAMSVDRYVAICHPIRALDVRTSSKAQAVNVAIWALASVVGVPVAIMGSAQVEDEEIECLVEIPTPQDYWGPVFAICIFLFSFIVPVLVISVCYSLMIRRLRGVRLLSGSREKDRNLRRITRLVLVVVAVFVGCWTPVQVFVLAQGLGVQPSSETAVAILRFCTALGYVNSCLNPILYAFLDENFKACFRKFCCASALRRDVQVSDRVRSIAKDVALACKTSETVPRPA
UniProt P35372, whole entry: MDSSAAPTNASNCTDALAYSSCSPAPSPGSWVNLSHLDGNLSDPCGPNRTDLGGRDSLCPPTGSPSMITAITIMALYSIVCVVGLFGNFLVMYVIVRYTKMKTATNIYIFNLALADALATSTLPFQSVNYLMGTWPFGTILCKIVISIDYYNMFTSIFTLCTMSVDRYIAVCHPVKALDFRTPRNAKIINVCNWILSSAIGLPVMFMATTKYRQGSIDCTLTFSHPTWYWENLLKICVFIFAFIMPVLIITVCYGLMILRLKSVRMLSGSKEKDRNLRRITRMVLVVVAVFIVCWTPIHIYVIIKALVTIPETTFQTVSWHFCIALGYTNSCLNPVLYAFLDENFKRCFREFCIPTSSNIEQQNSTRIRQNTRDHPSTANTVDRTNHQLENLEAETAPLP

In patent publication US7960404B2, “Spirocyclic cyclohexane compounds” (dated 2011):

How the values were obtained:
[1] = target: ORL1 receptor (Homo sapiens, UniProt P41146); assay: ORL1 receptor binding assay with 3H-nociceptin/orphanin FQ (SPA); settings: for % inhibition (ORL1) [1 μM] / Ki: series R3=phenyl, X=O
[2] = target: human μ-opiate receptor (Homo sapiens, UniProt P35372); assay: μ-opiate receptor binding assay with [3H] naloxone (SPA)
[3] = Metabolic stability, incubation with human liver microsomes; settings: substrate 1 μmol/l, 37° C.
[4] = Microsomal biotransformation / metabolite formation, general statements
[5] = Metabolic stability, incubation with mouse liver microsomes

## N-{4′,9′-Dihydro-4-phenylspiro[cyclohexane-1,1′(3′H)-pyrano[3,4-b]indol]-4-yl}-pyrrolidine, 2-hydroxy-1,2,3-propanetricarboxylate (4:3)
[1]
  affinity for the ORL1 receptor (in words): comparable to V-8
[1]; R8=H
  % inhibition (ORL1) [1 μM]: 95%
[1]; read-out: Ki (ORL1) mean [μm], R8=H
  Ki: 3.5 nM
[2]
  affinity for the μ-opioid receptor (in words): comparable to V-8
[2]; 1 μm, series R3=phenyl, R8=H, X=O
  % inhibition (μ) [1 μm]: 94%
[2]; read-out: Ki (μ) mean [μm], series R3=phenyl, R8=H, X=O
  Ki: 1.1 nM

## N-{6′-Fluoro-4′,9′-dihydro-4-phenylspiro[cyclohexane-1,1′(3′H)-pyrano[3,4-b]indol]-4-yl}-azetidine, 2-hydroxy-1,2,3-propanetricarboxylate (2:1)
[1]; R8=F
  % inhibition (ORL1) [1 μM]: 91%
[1]; read-out: Ki (ORL1) mean, R8=F
  Ki: 12.3 nM
[3]
  Conversion rate for human microsomes (300 pmol/ml): no conversion determined
[2]; 1 μM, series R3=phenyl, R8=F, X=O
  % inhibition (μ) [1 μM]: 101%
[2]; read-out: Ki (μ) mean, series R3=phenyl, R8=F, X=O
  Ki: 1.9 nM
[4]
  formation of the N-demethyl metabolite: do not form the N-demethyl metabolite
[5]; mouse microsomes, rate as % of V-1
  conversion rate as share of the conversion rate for V-1: less than 10%
[5]; substrate 1 μmol/l, mouse microsomes 300 pmol/ml, 37° C.
  Conversion rate for mouse microsomes (300 pmol/ml): 0.0009 nmol/min/nmol P450

Like-named read-outs stand apart in the source and are kept apart here. Some compounds may have been tested in ways that are not shown here.
